Values of other authors in patent US12458653B2, “Cannabis based therapeutic and method of use” (priority 2018, dated 2025).
Read-outs that look alike come from different tables or passages of the source.

Details: for maximum Δ9-THC plasma concentration: oral administration

CCCCCc1cc(O)c2c(c1)OC(C)(C)[C@@H]1CCC(C)=C[C@@H]21 [Δ9-THC, delta-9 tetrahydrocannabinol]
maximum Δ9-THC plasma concentration (15 mg): 2.7 to 6.3 ng/mL | maximum Δ9-THC plasma concentration (20 mg): 4.4 to 11 ng/mL | time to maximum Δ9-THC plasma concentration (oral ingestion): 1 to 2 h
